Experimental data: article PMC2362153, “Increased accumulation of doxorubicin and doxorubicinol in cardiac tissue of mice lacking mdr1a P-glycoprotein” (British Journal of Cancer, 1999)

Assay: Tissue distribution of doxorubicin and metabolites in wild-type and mdr1a(-/-) mice (HPLC)
Source text: Blank human plasma was obtained from healthy donors. […] All biological specimens were stored at -20C until analysis. […] However, […]

`COc1cccc2c1C(=O)c1c(O)c3c(c(O)c1C2=O)C[C@@](O)(C(=O)CO)C[C@@H]3O[C@H]1C[C@H](N)[C@H](O)[C@H](C)O1` [doxorubicin] gave a Tissue level (brain, 1 h after i.v. 5 mg kg-1 doxorubicin, mdr1a(-/-) mice) of 0.28 nmol g-1 tissue, a Tissue level (brain, 1 h after i.v. 5 mg kg-1 doxorubicin, wild-type mice) of 0.10 nmol g-1 tissue and a Tissue level (brain, 4 h after i.v. 5 mg kg-1 doxorubicin, mdr1a(-/-) mice) of 0.33 nmol g-1 tissue. The Tissue level (brain, 4 h after i.v. 5 mg kg-1 doxorubicin, wild-type mice) was 0.12 nmol g-1 tissue, the Tissue level (brain, 24 h after i.v. 5 mg kg-1 doxorubicin, mdr1a(-/-) mice) was 0.21 nmol g-1 tissue and the Tissue level (brain, 24 h after i.v. 5 mg kg-1 doxorubicin, wild-type mice) was 0.06 nmol g-1 tissue. The Tissue level (breast, 1 h after i.v. 5 mg kg-1 doxorubicin, mdr1a(-/-) mice) was 6.46 nmol g-1 tissue, the Tissue level (breast, 1 h after i.v. 5 mg kg-1 doxorubicin, wild-type mice) was 5.71 nmol g-1 tissue and the Tissue level (breast, 4 h after i.v. 5 mg kg-1 doxorubicin, mdr1a(-/-) mice) was 7.11 nmol g-1 tissue. It also gave a Tissue level (breast, 4 h after i.v. 5 mg kg-1 doxorubicin, wild-type mice) of 4.25 nmol g-1 tissue, a Tissue level (breast, 24 h after i.v. 5 mg kg-1 doxorubicin, mdr1a(-/-) mice) of 5.42 nmol g-1 tissue and a Tissue level (breast, 24 h after i.v. 5 mg kg-1 doxorubicin, wild-type mice) of 1.47 nmol g-1 tissue. The Tissue level (caecum, 1 h after i.v. 5 mg kg-1 doxorubicin, mdr1a(-/-) mice) was 9.64 nmol g-1 tissue, the Tissue level (caecum, 1 h after i.v. 5 mg kg-1 doxorubicin, wild-type mice) was 7.95 nmol g-1 tissue and the Tissue level (caecum, 4 h after i.v. 5 mg kg-1 doxorubicin, mdr1a(-/-) mice) was 11.3 nmol g-1 tissue. It also gave a Tissue level (caecum, 4 h after i.v. 5 mg kg-1 doxorubicin, wild-type mice) of 9.84 nmol g-1 tissue, a Tissue level (caecum, 24 h after i.v. 5 mg kg-1 doxorubicin, mdr1a(-/-) mice) of 6.96 nmol g-1 tissue and a Tissue level (caecum, 24 h after i.v. 5 mg kg-1 doxorubicin, wild-type mice) of 2.81 nmol g-1 tissue. For the same molecule, the Tissue level (colon, 1 h after i.v. 5 mg kg-1 doxorubicin, mdr1a(-/-) mice) was 9.65 nmol g-1 tissue, the Tissue level (colon, 1 h after i.v. 5 mg kg-1 doxorubicin, wild-type mice) was 8.17 nmol g-1 tissue and the Tissue level (colon, 4 h after i.v. 5 mg kg-1 doxorubicin, mdr1a(-/-) mice) was 12.6 nmol g-1 tissue. The Tissue level (colon, 4 h after i.v. 5 mg kg-1 doxorubicin, wild-type mice) was 13.0 nmol g-1 tissue, the Tissue level (colon, 24 h after i.v. 5 mg kg-1 doxorubicin, mdr1a(-/-) mice) was 7.70 nmol g-1 tissue and the Tissue level (colon, 24 h after i.v. 5 mg kg-1 doxorubicin, wild-type mice) was 2.99 nmol g-1 tissue. It also gave a Tissue level (heart, 1 h after i.v. 5 mg kg-1 doxorubicin, mdr1a(-/-) mice) of 23.6 nmol g-1 tissue, a Tissue level (heart, 1 h after i.v. 5 mg kg-1 doxorubicin, wild-type mice) of 21.5 nmol g-1 tissue and a Tissue level (heart, 4 h after i.v. 5 mg kg-1 doxorubicin, mdr1a(-/-) mice) of 13.7 nmol g-1 tissue. It also gave a Tissue level (heart, 4 h after i.v. 5 mg kg-1 doxorubicin, wild-type mice) of 12.6 nmol g-1 tissue, a Tissue level (heart, 24 h after i.v. 5 mg kg-1 doxorubicin, wild-type mice) of 1.69 nmol g-1 tissue and a Tissue level (kidney, 1 h after i.v. 5 mg kg-1 doxorubicin, mdr1a(-/-) mice) of 33.2 nmol g-1 tissue. The Tissue level (kidney, 4 h after i.v. 5 mg kg-1 doxorubicin, mdr1a(-/-) mice) was 21.6 nmol g-1 tissue, the Tissue level (kidney, 4 h after i.v. 5 mg kg-1 doxorubicin, wild-type mice) was 22.3 nmol g-1 tissue and the Tissue level (kidney, 24 h after i.v. 5 mg kg-1 doxorubicin, mdr1a(-/-) mice) was 9.05 nmol g-1 tissue. The Tissue level (kidney, 24 h after i.v. 5 mg kg-1 doxorubicin, wild-type mice) was 5.68 nmol g-1 tissue, the Tissue level (liver, 1 h after i.v. 5 mg kg-1 doxorubicin, mdr1a(-/-) mice) was 44.7 nmol g-1 tissue and the Tissue level (liver, 1 h after i.v. 5 mg kg-1 doxorubicin, wild-type mice) was 20.6 nmol g-1 tissue. For the same molecule, the Tissue level (liver, 4 h after i.v. 5 mg kg-1 doxorubicin, mdr1a(-/-) mice) was 45.3 nmol g-1 tissue, the Tissue level (liver, 4 h after i.v. 5 mg kg-1 doxorubicin, wild-type mice) was 10.2 nmol g-1 tissue and the Tissue level (liver, 24 h after i.v. 5 mg kg-1 doxorubicin, mdr1a(-/-) mice) was 13.6 nmol g-1 tissue. For the same molecule, the Tissue level (liver, 24 h after i.v. 5 mg kg-1 doxorubicin, wild-type mice) was 1.69 nmol g-1 tissue, the Tissue level (lung, 1 h after i.v. 5 mg kg-1 doxorubicin, mdr1a(-/-) mice) was 25.3 nmol g-1 tissue and the Tissue level (lung, 1 h after i.v. 5 mg kg-1 doxorubicin, wild-type mice) was 23.3 nmol g-1 tissue. For the same molecule, the Tissue level (lung, 4 h after i.v. 5 mg kg-1 doxorubicin, mdr1a(-/-) mice) was 24.5 nmol g-1 tissue, the Tissue level (lung, 4 h after i.v. 5 mg kg-1 doxorubicin, wild-type mice) was 23.4 nmol g-1 tissue and the Tissue level (lung, 24 h after i.v. 5 mg kg-1 doxorubicin, mdr1a(-/-) mice) was 18.9 nmol g-1 tissue. The Tissue level (lung, 24 h after i.v. 5 mg kg-1 doxorubicin, wild-type mice) was 5.05 nmol g-1 tissue, the Tissue level (muscle, 1 h after i.v. 5 mg kg-1 doxorubicin, mdr1a(-/-) mice) was 6.03 nmol g-1 tissue and the Tissue level (muscle, 1 h after i.v. 5 mg kg-1 doxorubicin, wild-type mice) was 6.95 nmol g-1 tissue. It also gave a Tissue level (muscle, 4 h after i.v. 5 mg kg-1 doxorubicin, mdr1a(-/-) mice) of 6.58 nmol g-1 tissue, a Tissue level (muscle, 4 h after i.v. 5 mg kg-1 doxorubicin, wild-type mice) of 7.92 nmol g-1 tissue and a Tissue level (muscle, 24 h after i.v. 5 mg kg-1 doxorubicin, mdr1a(-/-) mice) of 1.88 nmol g-1 tissue. It also gave a Tissue level (muscle, 24 h after i.v. 5 mg kg-1 doxorubicin, wild-type mice) of 1.35 nmol g-1 tissue, a Tissue level (ovary, 1 h after i.v. 5 mg kg-1 doxorubicin, mdr1a(-/-) mice) of 9.58 nmol g-1 tissue and a Tissue level (ovary, 1 h after i.v. 5 mg kg-1 doxorubicin, wild-type mice) of 7.41 nmol g-1 tissue. It also gave a Tissue level (ovary, 4 h after i.v. 5 mg kg-1 doxorubicin, mdr1a(-/-) mice) of 9.15 nmol g-1 tissue, a Tissue level (ovary, 4 h after i.v. 5 mg kg-1 doxorubicin, wild-type mice) of 6.74 nmol g-1 tissue and a Tissue level (ovary, 24 h after i.v. 5 mg kg-1 doxorubicin, mdr1a(-/-) mice) of 5.85 nmol g-1 tissue. For the same molecule, the Tissue level (ovary, 24 h after i.v. 5 mg kg-1 doxorubicin, wild-type mice) was 4.76 nmol g-1 tissue, the Tissue level (small gut, 1 h after i.v. 5 mg kg-1 doxorubicin, mdr1a(-/-) mice) was 17.5 nmol g-1 tissue and the Tissue level (small gut, 1 h after i.v. 5 mg kg-1 doxorubicin, wild-type mice) was 14.2 nmol g-1 tissue. For the same molecule, the Tissue level (small gut, 4 h after i.v. 5 mg kg-1 doxorubicin, mdr1a(-/-) mice) was 18.7 nmol g-1 tissue, the Tissue level (small gut, 4 h after i.v. 5 mg kg-1 doxorubicin, wild-type mice) was 14.6 nmol g-1 tissue and the Tissue level (small gut, 24 h after i.v. 5 mg kg-1 doxorubicin, mdr1a(-/-) mice) was 13.0 nmol g-1 tissue. It also gave a Tissue level (small gut, 24 h after i.v. 5 mg kg-1 doxorubicin, wild-type mice) of 3.56 nmol g-1 tissue, a Tissue level (spleen, 1 h after i.v. 5 mg kg-1 doxorubicin, mdr1a(-/-) mice) of 18.9 nmol g-1 tissue and a Tissue level (spleen, 1 h after i.v. 5 mg kg-1 doxorubicin, wild-type mice) of 16.6 nmol g-1 tissue. For the same molecule, the Tissue level (spleen, 4 h after i.v. 5 mg kg-1 doxorubicin, mdr1a(-/-) mice) was 22.5 nmol g-1 tissue, the Tissue level (spleen, 4 h after i.v. 5 mg kg-1 doxorubicin, wild-type mice) was 23.7 nmol g-1 tissue and the Tissue level (spleen, 24 h after i.v. 5 mg kg-1 doxorubicin, mdr1a(-/-) mice) was 29.2 nmol g-1 tissue. For the same molecule, the Tissue level (spleen, 24 h after i.v. 5 mg kg-1 doxorubicin, wild-type mice) was 16.6 nmol g-1 tissue, the Tissue level (stomach, 1 h after i.v. 5 mg kg-1 doxorubicin, mdr1a(-/-) mice) was 7.21 nmol g-1 tissue and the Tissue level (stomach, 1 h after i.v. 5 mg kg-1 doxorubicin, wild-type mice) was 7.68 nmol g-1 tissue. It also gave a Tissue level (stomach, 4 h after i.v. 5 mg kg-1 doxorubicin, mdr1a(-/-) mice) of 11.2 nmol g-1 tissue, a Tissue level (stomach, 4 h after i.v. 5 mg kg-1 doxorubicin, wild-type mice) of 7.40 nmol g-1 tissue and a Tissue level (stomach, 24 h after i.v. 5 mg kg-1 doxorubicin, mdr1a(-/-) mice) of 5.82 nmol g-1 tissue. It also gave a Tissue level (stomach, 24 h after i.v. 5 mg kg-1 doxorubicin, wild-type mice) of 3.25 nmol g-1 tissue, a Tissue level (uterus, 1 h after i.v. 5 mg kg-1 doxorubicin, wild-type mice) of 7.98 nmol g-1 tissue and a Tissue level (uterus, 4 h after i.v. 5 mg kg-1 doxorubicin, mdr1a(-/-) mice) of 8.07 nmol g-1 tissue. For the same molecule, the Tissue level (uterus, 4 h after i.v. 5 mg kg-1 doxorubicin, wild-type mice) was 12.1 nmol g-1 tissue, the Tissue level (uterus, 24 h after i.v. 5 mg kg-1 doxorubicin, mdr1a(-/-) mice) was 12.9 nmol g-1 tissue and the Tissue level (uterus, 24 h after i.v. 5 mg kg-1 doxorubicin, wild-type mice) was 6.78 nmol g-1 tissue.
